Test results taken from PMC7450990 (Journal of medicinal chemistry, 2019).

Test system: Hh pathway (endogenous Gli1 mRNA levels), ASZ-001 cells
Test: cells
Details: Mus musculus, ASZ001, 48 h, read-out: IC50 (Hh pathway inhibition, Gli1 mRNA), ASZ-001 cells, 48 h incubation, Mean ± SEM

SMILES	pIC50
C[C@@]1(c2ccc(Cl)cc2Cl)OC[C@@H](COc2ccc(N3CCN(c4ccc(NC(=O)Oc5ccccc5)cc4)CC3)cc2)O1 [Compound 37, phenyl (4-(4-(4-(((2R,4R)-2-(2,4-dichlorophenyl)-2-methyl-1,3-dioxolan-4-yl)methoxy)phenyl)piperazin-1-yl)phenyl)carbamate]	< 5.00
C[C@]1(c2ccc(Cl)cc2Cl)OC[C@@H](COc2ccc(N3CCN(c4ccc(NC(=O)Oc5ccccc5)cc4)CC3)cc2)O1 [Compound 38, phenyl (4-(4-(4-(((2S,4R)-2-(2,4-dichlorophenyl)-2-methyl-1,3-dioxolan-4-yl)methoxy)phenyl)piperazin-1-yl)phenyl)carbamate]	< 5.00

pIC50: −log10 of the molar value.
